Literature values as cited in US5278324A, “Water soluble derivatives of taxol” (Virginia Tech Intellectual Properties, Inc., priority 1991, dated 1994).

Test system: tubulin
Settings: cited from earlier work

Structure (SMILES): COc1cc2c(c(OC)c1OC)-c1ccc(OC)c(=O)cc1[C@@H](NC(C)=O)CC2 [colchicine]
- effect on microtubule formation: prevent microtubule formation
